According to US9320734B2, “Small molecule inhibitors of the pleckstrin homology domain and methods for using same” (Board of Regents, The University of Texas System, priority 2008, dated 2016):
Read-outs that look alike come from different tables or passages of the source.

Chains of the proteins cited; added tags and fusions are not shown. Residues count along the entry.
UniProt O15530, 459-550: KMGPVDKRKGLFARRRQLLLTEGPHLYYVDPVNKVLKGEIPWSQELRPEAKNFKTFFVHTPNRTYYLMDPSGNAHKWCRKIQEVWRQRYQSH

How the values were obtained:
BxPC-3 pancreatic cancer = assay: Antitumor activity, oral dosing, BxPC-3 xenograft; format: in vivo, scid mice; conditions: 125 to 250 mg/kg, in the most sensitive tumors
[1] = test system: MCF-7 human breast cancer xenografts; assay: Compound 104 alone or with paclitaxel, MCF-7 xenografts; format: in vivo, scid mice; conditions: 104 200 mg/kg orally twice per day for 10 days; paclitaxel 10 mg/kg i.p. every other day for 5 doses
Experimental: Female scid mice with a s.c. implanted 60 day estradiol release pellets were injected s.c. with 10^7 MCF-7 human breast cancer cells. When the tumors reached about 10 mm^3 the mice were statified into groups of 8 mice and dosing was satrted on day 13 as indicated by the arrow (⇑) in FIG. 11.

[2] = test system: BxPC-3 pancreatic cancer xenografts; conditions: 125 mg/kg i.p., twice a day for 5 d
[3] = test system: UVB-induced AKT phosphorylation in HaCaT cells and HaCaT-II,4 cells
HaCaT cells = assay: cells; conditions: Homo sapiens, 72 h, read-out: cell survival IC50
HaCat-II,4 cells = assay: cells; conditions: Homo sapiens, 72 h, read-out: cell survival IC50
[4] = test system: phospho-Ser473-AKT in MiaPaCa-2 cells; assay: Cellular AKT inhibition, Western blot phospho-Ser473-AKT, MiaPaCa-2 cells; conditions: Homo sapiens, MIA PaCa-2, read-out: pAKT inhibition (IC50), MiaPaca-2, Western blots phospho-Ser473-AKT
PH domain of PDK1 = PH domain of PDK1 (Homo sapiens (Human), UniProt O15530); assay: SPR direct binding to PDK1 PH domain; conditions: NB = no measurable binding, read-out: PDK1 PH mKD

SMILES | inhibition of tumor growth (BxPC-3 pancreatic cancer) | antitumor activity [1] | anti-tumor activity [2] | UVB-induced AKT phosphorylation ([3]; 1 μM and 5 μM, UV-B 250 J/m2) | UVB-induced AKT phosphorylation ([3]; 10 μM and 20 μM, UV-B 250 J/m2, both cell lines) | IC50 (HaCaT cells) [µM] | IC50 (HaCat-II,4 cells) [µM] | IC50 [4] [µM] | Kd (PH domain of PDK1) [µM]
CCCCCCCCCCCCc1ccc(S(=O)(=O)Nc2nncs2)cc1 [Compound 104, 4-Dodecyl-N-(1,3,4-thiadiazol-2-yl)benzenesulfonamide] | up to 80% | inhibited tumor growth | Significant anti-tumor activity with cessation of tumor growth and even regression | did not appear to affect | reduced UVB-induced AKT phosphorylation | ~40 | ~60 | 10 | 
CC1=NN(C(=O)c2ccccc2)C(=O)C1/N=N/c1ccc(S(=O)(=O)Nc2ncccn2)cc1 (stereo not drawn) [Compound 331] |  |  |  |  |  |  |  |  | 0.17 ± 0.1
